Bioassay records from PubChem.
Only some compounds are listed: those with a hit (about 1.9% of all), similar ones and a draw of the others.
PglD inh – blocks C. jejuni PglD acetyltransferase activity; AID 602405; purified PglD enzyme, DTNB colorimetric CoA detection; inhibition, % at 12.5 µM; 0.098% of 360,000 active; in the data active = inhibition above about 16%, passing the limit was not always enough; inconclusive = no clear call, values can overlap the other calls
Yeast UUG start – modulators of start codon recognition fidelity in yeast; AID 602363; activity score, % at 18.7 µM; S. cerevisiae UUG-firefly luciferase reporter, luminescence/redox ratio; 0.13% of 350,000 active;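 active = replicate mean at a twofold rise or more, about +100% in these data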;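 note: firefly luciferase made from a UUG start codon reports start codon fidelity; reporter light over untreated wells divided by growth signal over untreated wells; some hits fall short of that in this replicate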
ERp5 block – blocks human ERp5 reductase activity on insulin | Q15084 | ERp5 insulin aggregation, absorbance 650 nm, 90 min | inhibition, % at 9.99 µM | 0.05% of 350,000 active;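 active = mean replicate inhibition above about 25%, with every replicate also reaching it, limit read from the data, passing the limit was not always enough; inconclusive = only one of those two criteria met; inactive = neither criterion met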
ARNT-TACC3 inh – ARNT/TACC3 interaction disruption | 0.66% of 390,000 active | AlphaScreen His-ARNT PAS-B/GST-TACC3 binding, luminescence; TACC3 fragment carries E629A point mutation | inhibition, % at 9.99 µM | Q9Y6A5 | AID 623870;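 active = mean inhibition of replicates at least 50% and at least half of replicates each reaching 50%; inconclusive = half or more replicates reach 50% but mean below 50%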
FGF22 binding – shifts melting point of recombinant human FGF22 | Q9HCT0 | recombinant FGF22 thermal shift, SYPRO orange fluorescence; percent of sucrose octasulfate shift, DMSO zero | 1.5% of 340,000 active | activity (Tm shift, normalised), % at 9.99 µM;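 active = mean Tm shift, scaled 0 neutral to 100 positive control, at about 1.3% or above, every replicate too, limit read from the data; inconclusive = no clear call, values can overlap the other calls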
PDI turbidity – inhibitors of human protein disulfide isomerase. P07237. PDI insulin aggregation turbidity, A650, 90 min. inhibition, % at 10 µM. 0.052% of 350,000 active. AID 588391;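 active = mean inhibition across replicates of 30% or more, whatever share of single replicates reach that level; inconclusive = mean inhibition below 30% while every single replicate reaches 30%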
Each line names hits and unclear results; the compound was inactive in the other large screens.

C[C@@H]1CN([C@H](C)CO)C(=O)c2cc(/C=C/c3ccccc3)cnc2O[C@@H]1CN(C)C(=O)c1ccc(F)cc1	none (no result: PDI turbidity)
CC(NC(=O)c1ccccc1)C(=O)N/N=C/c1cccc([N+](=O)[O-])c1 (centres undefined)	FGF22 binding 43.0 (no result: PglD inh, Yeast UUG start)
O=C(Cc1ccc(Br)cc1)OCC(=O)N1CCCCCC1	FGF22 binding 43.1 (no result: PglD inh, Yeast UUG start)
O=C(O)C1CCC(Cn2c(SCc3cc(=O)n4cc(Br)ccc4n3)nc3ccsc3c2=O)CC1 (centres undefined)	none (no result: PglD inh, Yeast UUG start)
O=C(O)c1ccc(Cn2c(SCc3cc(=O)n4cc(Br)ccc4n3)nc3ccsc3c2=O)cc1	FGF22 binding 43.4 (no result: PglD inh, Yeast UUG start, ARNT-TACC3 inh, PDI turbidity)
COc1ccc(N=C(N)SCc2ccccn2)cc1	ARNT-TACC3 inh 55.3 (no result: PglD inh, Yeast UUG start, ERp5 block, FGF22 binding)
COc1ccc(-c2nnc(SCc3ccccn3)n2C)cc1	none (no result: ERp5 block, ARNT-TACC3 inh, FGF22 binding)
O=C(c1cccnc1)N1CC2(C1)[C@H](c1ccccc1)[C@@H](CO)N2Cc1ccccc1	none (no result: PglD inh, Yeast UUG start, ARNT-TACC3 inh, PDI turbidity)
Cc1cc(=O)[nH]c(NN=C2CCC(C(C)(C)C)CC2)n1 (centres undefined)	FGF22 binding 44.0 (no result: PglD inh, Yeast UUG start)
CC(=O)c1cccc(N2C(=O)Nc3ccccc3N2O)c1	FGF22 binding 43.4
Cc1nn(CC(=O)NC2CC2)c(C)c1S(=O)(=O)N(C)C	FGF22 binding 43.1 (no result: ARNT-TACC3 inh)
COc1ccc2c3c([nH]c2c1)[C@H](CO)N(S(=O)(=O)c1ccc(C)cc1)CC31CCN(Cc2nccs2)CC1	none (no result: PglD inh, Yeast UUG start, ARNT-TACC3 inh, FGF22 binding, PDI turbidity)
CS(=O)(=O)N1CCN(c2ccccc2[N+](=O)[O-])CC1	FGF22 binding 43.3 (no result: PglD inh, Yeast UUG start)
CS(=O)(=O)N1CCN(c2ccc([N+](=O)[O-])c(N3CCOCC3)c2)CC1	none (no result: ERp5 block, FGF22 binding)
CCCNC(=O)C[C@H]1CC[C@H]2[C@@H](COc3ccc(NC(=O)NC(C)C)cc3C(=O)N2C)O1	none (no result: PDI turbidity)
C[C@@H]1CN([C@@H](C)CO)C(=O)c2cc(NC(=O)Nc3cccc4ccccc34)ccc2O[C@@H]1CN(C)C(=O)Nc1ccccc1	ERp5 block inconclusive (no result: PDI turbidity)
COc1ccc(/C=N/NC(=O)c2ccc(COc3cccc4cccnc34)cc2)cc1OC	FGF22 binding 43.3 (no result: ARNT-TACC3 inh)
COc1ccc(/C=N/NC(=O)c2cc[n+]([O-])cc2)cc1O	ARNT-TACC3 inh 71.6
CCOc1cccc(/C=N/NC(=O)c2cc(C3CC3)[nH]n2)c1O	ARNT-TACC3 inh 71.4
CCOc1cc(/C=N/NC(=O)c2cccnc2)ccc1OCC(=O)N(C)C	FGF22 binding 44.2 (no result: PglD inh, Yeast UUG start)
COc1ccc(/C=N/NC(=O)c2ccc(COc3cccc4cccnc34)cc2)cc1O	none
COc1cc(/C=N/NC(=O)c2cc(C3CC3)[nH]n2)cc(OC)c1OC	none
CO[C@H]1CN(C)C(=O)c2cc(NC(=O)C3CC3)ccc2OC[C@H](C)N(CC2CC2)C[C@@H]1C	none (no result: PDI turbidity)
COc1cccc(C=NNC(=O)c2ccncc2)c1O	ARNT-TACC3 inh 68.9
COc1cccc(/C=N/NC(=O)N/N=C/c2cccc(OC)c2O)c1O	none
CCOc1cccc(/C=N/NC(=O)c2cccnc2)c1O	ARNT-TACC3 inh 55.6
COc1cc(/C=N/NC(=O)c2ccncc2)ccc1OC(=O)c1ccccc1Cl	FGF22 binding 43.4 (no result: PglD inh, Yeast UUG start)
COc1cc(C(=O)N/N=C/c2ccc(OC(=O)c3ccccc3Cl)c(OC)c2)ccc1O	none (no result: ERp5 block, FGF22 binding)
CCn1c(C)nc2cc(C(=O)N/N=C/c3cccc(OC)c3O)ccc21	ARNT-TACC3 inh 40.4 (no result: PglD inh, Yeast UUG start)
CCS(=O)(=O)N1CCC2(CC1)CN(C(=O)c1ccc(F)cc1)[C@@H](CO)c1c2c2ccc(OC)cc2n1C	none (no result: PglD inh, Yeast UUG start, ARNT-TACC3 inh, PDI turbidity)
COc1cc([N+](=O)[O-])cc(/C=N/NC(=O)c2cccnc2)c1O	ARNT-TACC3 inh 72.9
CC(=O)N(C)C[C@H]1Oc2ncc(-c3ccc(C)cc3)cc2C(=O)N([C@@H](C)CO)C[C@@H]1C	none (no result: PDI turbidity)
Cc1ccc(SCc2nc(N)nc(Nc3ccccc3C)n2)c(C)c1	FGF22 binding 43.2 (no result: PglD inh, Yeast UUG start)
CCN(CC)S(=O)(=O)c1ccc2c(c1)N(CC(=O)NCCN1CCOCC1)C(=O)CO2	ERp5 block 27.9
C[C@@H]1CN([C@@H](C)CO)C(=O)Cc2cc(NC(=O)Cn3cnnn3)ccc2O[C@@H]1CN(C)S(=O)(=O)c1ccc(F)cc1	none (no result: PDI turbidity)
CN(Cc1ccccc1)C(=O)CN1C(=O)NC2(CCCc3sccc32)C1=O (centres undefined)	FGF22 binding 43.5 (no result: ARNT-TACC3 inh)
COc1ccccc1C/C(N)=N/OC(=O)/C=C/c1ccccc1	FGF22 binding 43.3 (no result: ARNT-TACC3 inh)
COc1ccccc1C/C(N)=N/OC(=O)COc1cc(C)cc(C)c1C	FGF22 binding 43.4 (no result: PglD inh, Yeast UUG start, ARNT-TACC3 inh)
CCC(=O)N1CC(=O)N2[C@H](CO)[C@H](c3ccc(C#CCc4ccccc4)cc3)[C@H]2C1	none (no result: PglD inh, Yeast UUG start, ARNT-TACC3 inh, FGF22 binding, PDI turbidity)
O=S(=O)(NCc1ccccn1)c1cc(C(F)(F)F)ccc1Cl	FGF22 binding 43.3
O=S(=O)(NCc1ccccn1)c1cc(Cl)ccc1Cl	none
COC1OCC(O)C(OC(=O)c2ccccc2)C1OC(=O)c1ccccc1 (centres undefined)	FGF22 binding 43.1
O=C(Nc1cccc2ccccc12)OCc1ccccc1	FGF22 binding 43.8
Cc1noc(C)c1S(=O)(=O)N(C)C[C@H]1OCCCC[C@H](C)Oc2ccc(NS(=O)(=O)c3cccs3)cc2C(=O)N([C@@H](C)CO)C[C@H]1C	none (no result: PglD inh, Yeast UUG start, ARNT-TACC3 inh, PDI turbidity)
NC(=N\N=Cc1ccco1)/C(N)=N/N=Cc1ccco1	ARNT-TACC3 inh 62.8
NC(N)=N/N=C/c1ccccc1	none (no result: PglD inh, Yeast UUG start, ERp5 block, FGF22 binding)
NC(=N\N=Cc1ccccc1)/C(N)=N/N=Cc1ccccc1	FGF22 binding 44.0 (no result: ARNT-TACC3 inh)
Cc1ccc(S(=O)(=O)N2CC[C@@H]3[C@@H](CO)Nc4ccc(C#Cc5ccccc5F)cc4[C@@H]32)cc1	none (no result: PDI turbidity)
C[C@@H]1CCCCO[C@H](CN(C)C(=O)CCCN(C)C)[C@@H](C)CN([C@H](C)CO)C(=O)c2cc(NS(=O)(=O)c3cccs3)ccc2O1	none (no result: PDI turbidity)
Cc1nnc(SCC(=O)N2CCCC(C(=O)c3ccc(Cl)cc3)C2)o1 (centres undefined)	FGF22 binding 43.4
COc1ccc2cc(C(=O)C3CCCN(C(=O)CSc4nnc(C)o4)C3)ccc2c1 (centres undefined)	none (no result: PglD inh, Yeast UUG start, ARNT-TACC3 inh)
Cc1noc(C)c1S(=O)(=O)N(C)C[C@H]1OCCCC[C@H](C)Oc2ccc(NC(=O)Nc3cccc4ccccc34)cc2C(=O)N([C@H](C)CO)C[C@@H]1C	none (no result: PDI turbidity)
COCC(=O)Nc1ccc2c(c1)C(=O)N(C)[C@@H]1CC[C@@H](CC(=O)NCc3ccccc3F)O[C@H]1CO2	none (no result: ARNT-TACC3 inh, PDI turbidity)
Cc1noc(C)c1NC(=O)Nc1ccc2c(c1)CC(=O)N([C@H](C)CO)C[C@@H](C)[C@@H](CN(C)Cc1ccc(Cl)c(Cl)c1)O2	none (no result: PDI turbidity)
CCN(CC)c1ccc(/C=C2/C(=O)ON=C2C)cc1	none (no result: PglD inh, Yeast UUG start)
CCN(CC)c1ccc(/C=C2\C(=O)N(c3nnc(C)c(=O)[nH]3)N=C2C)cc1	ARNT-TACC3 inh 60.4
COC(=O)C1=CN(Cc2ccc(OC)cc2)C=C(C(=O)OC)C1c1cc(OC)c(OC)c(OC)c1	ARNT-TACC3 inh active (no result: ERp5 block, FGF22 binding)
